Results taken from US20240009269A1 (priority 2020, published 2024).

Tested on: tissue-engineered dhBMECs microvessels
Assay: BBB opening in tissue-engineered BBB microvessels (500 kDa dextran leakage)
Type: cell-based, human
Conditions: retrospective analysis
Procedure: Three-dimensional blood-brain barrier microvessels were fabricated as previously reported (FIGS. 10A and 10B) [Linville, R. M., et al., Biomaterials, 2019. 190-191: p. 24-37] 150 μm diameter and 1 cm long channels were patterned in 7 mg mL^−1 type I collagen (Corning) using nitinol wire (Malin Co.) housed within polydimethylsiloxane (PDMS; Dow Corning). Channels were cross-linked by incubation in 20 mM genipin (Wako Biosciences) for 2 hours to increase cell adhesion. 2dhBMECs were suspended in BBB induction medium at a concentration of 5×10^6 cells mL^−1 and seeded into channels. Microvessels were perfused using BBB induction medium for 24 hours and then switched to BBB maintenance medium. […]
Live-cell imaging was conducted to study dynamic changes in in vitro BBB permeability and microvessel structure. […] Phase contrast and fluorescence images were acquired every two minutes with the focal plane set to the microvessel midplane. […]
Image processing was performed using ImageJ (NIH) to quantify BBB opening (FIGS. 11A-11D). […] The permeability (cm s^−1) was calculated using P=(r/2)(1/ΔI)(dI/dt), where r is the vessel radius, ΔI is the increase in fluorescence intensity upon perfusion of the fluorophore, and (dI/dt) is the rate of increase in fluorescence intensity as solute exits into the gel. […]

OC[C@@H](O)[C@@H](O)[C@H](O)[C@H](O)CO [mannitol, reference compound]
threshold dose to induce opening: 7 M·min
